From patent US5807855A (dated 1998)

Sequences of proteins named here, by UniProt entry; tags and fusion partners are left off.
UniProt P18901, whole entry: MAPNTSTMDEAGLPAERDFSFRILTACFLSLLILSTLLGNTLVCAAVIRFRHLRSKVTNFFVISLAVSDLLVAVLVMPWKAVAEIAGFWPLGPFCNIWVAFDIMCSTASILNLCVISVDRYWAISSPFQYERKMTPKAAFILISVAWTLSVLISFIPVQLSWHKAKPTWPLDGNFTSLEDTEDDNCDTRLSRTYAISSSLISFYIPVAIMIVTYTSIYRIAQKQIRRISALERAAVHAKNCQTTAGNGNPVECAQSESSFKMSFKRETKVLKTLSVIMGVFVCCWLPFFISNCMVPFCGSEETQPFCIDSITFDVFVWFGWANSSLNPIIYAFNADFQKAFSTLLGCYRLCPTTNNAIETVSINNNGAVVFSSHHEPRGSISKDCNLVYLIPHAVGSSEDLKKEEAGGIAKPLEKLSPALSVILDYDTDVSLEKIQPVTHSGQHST
UniProt P61169, whole entry: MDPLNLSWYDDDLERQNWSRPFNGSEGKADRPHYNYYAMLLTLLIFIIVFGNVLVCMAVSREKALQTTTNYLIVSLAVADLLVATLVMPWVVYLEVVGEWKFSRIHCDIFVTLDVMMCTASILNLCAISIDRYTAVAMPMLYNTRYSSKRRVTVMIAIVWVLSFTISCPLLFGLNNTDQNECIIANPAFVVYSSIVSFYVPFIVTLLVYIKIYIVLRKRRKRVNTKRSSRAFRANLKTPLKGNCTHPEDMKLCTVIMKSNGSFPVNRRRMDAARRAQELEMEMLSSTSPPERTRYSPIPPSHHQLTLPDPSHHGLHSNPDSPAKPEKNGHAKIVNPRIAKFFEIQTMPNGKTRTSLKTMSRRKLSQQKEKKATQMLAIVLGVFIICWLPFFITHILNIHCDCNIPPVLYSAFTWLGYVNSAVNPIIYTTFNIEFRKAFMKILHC

Tests used:
[1] = target: DA D1 receptor (Rattus norvegicus, UniProt P18901); assay: biochemical; details: Receptor Binding; IC50, D1 3H-SCH, rat striatal membranes, 3H-SCH 23390
[2] = target: DA D2 receptors (Rattus norvegicus, UniProt P61169); assay: Inhibition of 3H-spiperone binding to DA D2 receptors in rat striatal membranes; details: Receptor Binding, IC50, D2 3H-Spi

Row | SMILES | pIC50 [1] | pIC50 [2]
1 | CN1CCN([C@@H]2C[C@@H](c3ccc(F)cc3)c3ccc(Cl)cc32)CC12CCC2 (racemic) [Compound 28, (±)-Trans-8-[6-chloro-3-(4-fluorophenyl)-2,3-dihydro-1H-inden-1-yl]-5-methyl-5,8-diazaspiro[3.5]nonane] | 9.05 | –
2 | CN1CCN([C@@H]2C[C@@H](c3ccc(F)cc3)c3ccc(Cl)cc32)CC1(C)C (single isomer, unassigned) [+2, (+) Trans-4-[6-chloro-3-(4-fluorophenyl)-2,3-dihydro-1H-inden-1-yl]-1,2,2-trimethylpiperazine] | – | < 6.00

pIC50: −log10 of the molar value.
